Assay [1] addresses human fetal muscle AChR (α1β1γδ) in TE671 cells (Homo sapiens, UniProt P02708+P07510+P11230+Q07001). In kind it is cell-based. The following applies: read-out: IC50 (inhibition of agonist-activated AChR ion channel flux).
Assay [2] has as its target Torpedo AChR ion channel ([3H]18-MC site) (Tetronarce californica, UniProt P02710+P02712+P02714+P02718). In kind it is binding.
A further assay addresses Torpedo AChR (Tetronarce californica, UniProt P02710+P02712+P02714+P02718). The following applies: read-out: apparent EC50 (50% increase of [3H]cytisine binding); 7.7 nM [3H]cytisine; resting but activatable state.

Amino acid sequences for entries named in this document (tags omitted). A change or cut given only in a name is not applied to a line headed by its entry. Residues count along the entry.
UniProt P07510, 23-517: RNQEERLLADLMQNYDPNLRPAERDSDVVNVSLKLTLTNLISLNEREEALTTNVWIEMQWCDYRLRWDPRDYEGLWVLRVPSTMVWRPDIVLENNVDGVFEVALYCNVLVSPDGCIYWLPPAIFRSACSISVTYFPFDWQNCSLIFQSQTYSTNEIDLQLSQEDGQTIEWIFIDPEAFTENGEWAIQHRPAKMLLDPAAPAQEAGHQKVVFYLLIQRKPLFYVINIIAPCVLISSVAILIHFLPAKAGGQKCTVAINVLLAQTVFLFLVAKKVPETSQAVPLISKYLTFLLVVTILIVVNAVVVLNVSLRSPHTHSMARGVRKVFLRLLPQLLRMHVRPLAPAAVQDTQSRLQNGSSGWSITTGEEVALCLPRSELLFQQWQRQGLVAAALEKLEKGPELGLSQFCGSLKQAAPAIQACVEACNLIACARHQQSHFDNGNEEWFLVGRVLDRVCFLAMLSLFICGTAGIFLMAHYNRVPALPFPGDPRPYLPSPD
UniProt P11230, 24-501: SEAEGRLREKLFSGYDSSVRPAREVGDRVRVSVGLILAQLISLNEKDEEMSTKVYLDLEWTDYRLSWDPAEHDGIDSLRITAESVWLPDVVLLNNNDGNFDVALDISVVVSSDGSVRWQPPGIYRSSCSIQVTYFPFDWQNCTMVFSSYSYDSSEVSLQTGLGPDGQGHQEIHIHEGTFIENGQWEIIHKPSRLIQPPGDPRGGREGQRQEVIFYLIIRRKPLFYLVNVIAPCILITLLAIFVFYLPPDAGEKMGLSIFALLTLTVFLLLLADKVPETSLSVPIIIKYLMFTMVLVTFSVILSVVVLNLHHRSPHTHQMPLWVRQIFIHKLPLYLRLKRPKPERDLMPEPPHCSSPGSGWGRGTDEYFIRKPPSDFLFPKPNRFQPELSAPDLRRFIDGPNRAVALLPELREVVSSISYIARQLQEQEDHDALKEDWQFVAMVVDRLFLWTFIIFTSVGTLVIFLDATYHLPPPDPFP
UniProt Q07001, 22-517: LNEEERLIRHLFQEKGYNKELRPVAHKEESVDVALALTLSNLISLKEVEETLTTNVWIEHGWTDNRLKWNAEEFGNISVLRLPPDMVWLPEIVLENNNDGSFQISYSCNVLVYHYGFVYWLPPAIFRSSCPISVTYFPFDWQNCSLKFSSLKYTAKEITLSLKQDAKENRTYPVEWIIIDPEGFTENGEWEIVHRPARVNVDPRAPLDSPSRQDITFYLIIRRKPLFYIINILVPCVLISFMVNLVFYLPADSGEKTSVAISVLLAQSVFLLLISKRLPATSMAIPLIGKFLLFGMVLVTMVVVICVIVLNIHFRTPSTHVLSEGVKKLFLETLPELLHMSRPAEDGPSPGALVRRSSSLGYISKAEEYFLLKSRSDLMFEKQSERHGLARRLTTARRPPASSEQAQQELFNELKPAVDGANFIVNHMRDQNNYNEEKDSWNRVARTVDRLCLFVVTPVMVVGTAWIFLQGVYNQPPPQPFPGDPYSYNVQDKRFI
UniProt P02710, 25-461: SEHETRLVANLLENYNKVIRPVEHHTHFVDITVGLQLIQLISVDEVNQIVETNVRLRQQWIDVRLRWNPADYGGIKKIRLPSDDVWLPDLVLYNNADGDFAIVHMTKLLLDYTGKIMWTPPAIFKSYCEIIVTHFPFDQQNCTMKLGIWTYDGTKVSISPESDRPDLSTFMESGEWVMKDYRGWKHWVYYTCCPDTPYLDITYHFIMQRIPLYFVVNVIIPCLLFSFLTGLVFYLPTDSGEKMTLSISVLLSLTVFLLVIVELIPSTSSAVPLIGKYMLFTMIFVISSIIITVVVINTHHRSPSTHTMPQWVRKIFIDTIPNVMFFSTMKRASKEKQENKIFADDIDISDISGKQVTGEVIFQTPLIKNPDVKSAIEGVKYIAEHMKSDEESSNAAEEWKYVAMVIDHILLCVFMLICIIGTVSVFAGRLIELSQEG
UniProt P02712, 25-493: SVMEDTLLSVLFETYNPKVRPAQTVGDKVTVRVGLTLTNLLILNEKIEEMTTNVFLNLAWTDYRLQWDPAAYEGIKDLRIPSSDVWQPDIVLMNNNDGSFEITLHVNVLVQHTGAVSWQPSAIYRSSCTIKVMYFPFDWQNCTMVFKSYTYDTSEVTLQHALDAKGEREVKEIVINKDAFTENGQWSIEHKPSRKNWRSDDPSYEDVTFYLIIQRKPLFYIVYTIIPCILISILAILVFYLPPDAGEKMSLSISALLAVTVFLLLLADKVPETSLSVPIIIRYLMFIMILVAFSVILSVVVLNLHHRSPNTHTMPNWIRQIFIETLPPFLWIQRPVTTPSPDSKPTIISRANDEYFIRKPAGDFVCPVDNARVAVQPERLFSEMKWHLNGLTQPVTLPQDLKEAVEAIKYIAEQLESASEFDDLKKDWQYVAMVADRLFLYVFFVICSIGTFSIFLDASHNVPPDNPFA
UniProt P02714, 18-506: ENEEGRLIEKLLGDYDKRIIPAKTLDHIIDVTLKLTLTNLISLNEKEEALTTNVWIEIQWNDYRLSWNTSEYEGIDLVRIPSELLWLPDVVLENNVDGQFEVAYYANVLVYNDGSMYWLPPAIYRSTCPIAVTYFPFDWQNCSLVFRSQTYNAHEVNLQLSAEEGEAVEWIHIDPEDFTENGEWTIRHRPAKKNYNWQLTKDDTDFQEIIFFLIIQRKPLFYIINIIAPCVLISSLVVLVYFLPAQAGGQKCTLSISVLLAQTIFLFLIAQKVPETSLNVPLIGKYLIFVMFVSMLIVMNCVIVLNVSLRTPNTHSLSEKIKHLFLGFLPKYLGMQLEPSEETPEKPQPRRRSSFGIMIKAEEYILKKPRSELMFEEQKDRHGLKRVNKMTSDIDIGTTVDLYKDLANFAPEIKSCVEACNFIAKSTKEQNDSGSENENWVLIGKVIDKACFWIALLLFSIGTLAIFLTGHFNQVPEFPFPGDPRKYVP
UniProt P02718, 22-522: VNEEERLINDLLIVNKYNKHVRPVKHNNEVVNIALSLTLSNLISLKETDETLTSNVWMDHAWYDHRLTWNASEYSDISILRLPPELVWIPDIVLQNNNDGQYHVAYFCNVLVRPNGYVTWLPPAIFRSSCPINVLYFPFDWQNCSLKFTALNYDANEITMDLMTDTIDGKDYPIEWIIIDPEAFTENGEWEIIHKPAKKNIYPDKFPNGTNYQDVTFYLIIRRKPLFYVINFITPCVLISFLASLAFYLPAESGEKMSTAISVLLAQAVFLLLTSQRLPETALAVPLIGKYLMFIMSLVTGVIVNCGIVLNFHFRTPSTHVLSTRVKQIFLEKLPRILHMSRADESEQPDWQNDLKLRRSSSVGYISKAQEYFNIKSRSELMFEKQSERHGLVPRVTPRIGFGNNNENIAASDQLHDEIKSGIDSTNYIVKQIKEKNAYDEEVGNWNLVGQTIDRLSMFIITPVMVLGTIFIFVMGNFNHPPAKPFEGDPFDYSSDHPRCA

Read-outs that look alike come from different tables or passages of the source.

As to ibogaine, in assay [1], the IC50 was 17 ± 3 µM. Further, the Ki in assay [2] (desensitized/CCh-bound state) is 9.3 ± 0.6 µM; in assay [2] (resting/α-BTx-bound state), 11 ± 1 µM. Also, the EC50 on Torpedo AChR is 28 ± 10 µM.
